Assay results as given in ChEMBL document CHEMBL1159120, “2,4-Diamino-5-methyl-6-substituted arylthio-furo[2,3-d]pyrimidines as novel classical and nonclassical antifolates as potential dual thymidylate synthase and dihydrofolate reductase inhibitors” (Bioorg Med Chem, 2010).

Sequences of proteins named here, by UniProt entry; tags and fusion partners are left off. A change or cut given only in a name is not applied to a line headed by its entry.
UniProt P04818: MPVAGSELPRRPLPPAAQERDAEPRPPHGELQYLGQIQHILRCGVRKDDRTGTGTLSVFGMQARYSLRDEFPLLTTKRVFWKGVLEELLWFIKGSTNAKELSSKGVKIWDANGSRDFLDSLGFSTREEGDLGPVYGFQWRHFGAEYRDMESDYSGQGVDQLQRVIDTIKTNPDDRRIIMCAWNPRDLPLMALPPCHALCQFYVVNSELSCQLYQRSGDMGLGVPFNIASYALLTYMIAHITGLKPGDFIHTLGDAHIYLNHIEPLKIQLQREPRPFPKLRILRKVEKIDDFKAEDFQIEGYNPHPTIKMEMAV

Target: Thymidylate synthase (Homo sapiens, UniProt P04818)

Question: Which IC50 does the source give for Cc1c(Sc2ccc(C(=O)N[C@@H](CCC(=O)O)C(=O)O)cc2)oc2nc(N)nc(N)c12 here?
Answer: The IC50 was 5.4 µM.
